Protein sequences, listed by entry. Tags and fused reporters are not part of them.
UniProt P41146, whole entry: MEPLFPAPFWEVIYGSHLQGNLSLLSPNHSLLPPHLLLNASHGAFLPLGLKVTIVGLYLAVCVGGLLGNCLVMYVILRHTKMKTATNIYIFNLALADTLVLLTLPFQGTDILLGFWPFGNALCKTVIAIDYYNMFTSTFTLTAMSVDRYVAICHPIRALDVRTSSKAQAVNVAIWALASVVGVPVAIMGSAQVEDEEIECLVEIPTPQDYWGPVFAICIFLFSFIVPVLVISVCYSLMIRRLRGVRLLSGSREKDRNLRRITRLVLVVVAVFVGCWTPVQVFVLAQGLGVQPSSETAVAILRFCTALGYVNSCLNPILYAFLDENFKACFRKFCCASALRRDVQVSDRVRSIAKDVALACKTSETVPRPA

In patent US6258825A, “2-oxoimidazole derivatives” (dated 2001):

Key:
nociceptin receptor ORL1 [1] = molecular target: T1, nociceptin receptor ORL1 (Homo sapiens, UniProt P41146); experiment: Antagonism against nociceptin-elicited G protein activation; details: read-out: IC50 Value (antagonism against nociceptin-elicited G protein activation); GTPγ[35S] binding 200 pM, 50 nM nociceptin, CHO/ORL1 membrane, SPA, pH 7.4, 25° C., 150 minutes
Method: (§1) cDNA which codes a human nociceptin receptor gene was cloned into an expression vector pCR3 (Invitrogen) to prepare pCR3/ORL1. Next, pCR3/ORL1 was transfected in CHO cells using a transfectam (Nippongene) to obtain a stable expression strain (CHO/ORL1 cells) having resistance against 1 mg/ml G418. Membranes were prepared from this stable expression strain to carry out a receptor binding assay.
CHO cells which stably expressed a nociceptin receptor ORL1 were used to investigate the action of a tested compound against nociceptin-elicited G protein activation. A membrane prepared from the CHO/ORL1 cell, 50 nM nociceptin, 200 pM GTP γ[^3 S] (NEN), 1.5 mg SPA (Amersham) and the tested compound were mixed in a GDP buffer (20 mM Hepes, 100 mM sodium chloride, 10 mM magnesium chloride, 1 mM EDTA, 5 μM GDP, pH 7.4) and incubated at 25° C. for 150 minutes, and then the radioactivity was determined. The antagonism against nociceptin-elicited G protein activation was shown by the 50% inhibition concentration (IC50 value) of GTP γ[^35 S] binding by the compounds of the present invention having various concentrations.

nociceptin receptor ORL1 [2] = molecular target: T1, nociceptin receptor ORL1; experiment: Nociceptin receptor binding inhibition assay; details: read-out: IC50 value (nociceptin receptor binding inhibition effect); [125I]Tyr14-Nociceptin 50 pM, CHO/ORL1 membrane 11 μg, SPA, pH 7.4, 37° C., 60 minutes
Method: as §1
The membrane of 11 μg, 50 pM [^125 I] Tyr^14 -Nociceptin (Amersham), 1 mg SPA (Amersham) and a tested compound were suspended in an NC buffer (50 mM Hepes, 10 mM sodium chloride, 1 mM magnesium chloride, 2.5 mM calcium chloride, 0.1% BSA, 0.025% bacitracin, pH 7.4) and incubated at 37° C. for 60 minutes, and then the radioactivity was determined. The binding activity to the nociceptin receptor was shown by the 50% inhibition concentration (IC50 value) of [^125 I] Tyr^14 -Nociceptin binding by the compounds of the present invention having various concentrations.

SMILES: CCn1c(=O)n(C2CCN(CC3CCCCCCC3)CC2)c2ccccc21
- IC50 (nociceptin receptor ORL1 [1]): 18 nM
- IC50 (nociceptin receptor ORL1 [2]): 6.1 nM

SMILES: O=c1[nH]c2ccccc2n1C1CCN(CC2CCCCCCC2)CC1
- IC50 (nociceptin receptor ORL1 [1]): 670 nM
- IC50 (nociceptin receptor ORL1 [2]): 8 nM

Some compounds may have been tested in ways that are not shown here.
